A selection: hits, their analogues and other compounds. The true share with any hit is near 0.91%.
FN deposition inh – fibronectin deposition inhibition; 350,000 compounds, 0.086% hits; AID 743247; inhibition, % at 12.6 µM; AH1F fibroblasts, Alexa488-fibronectin deposition fluorescence, overnight;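 active = mean inhibition across replicates of 30% or more, regardless of how many single replicates reach that level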;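 also: positive control wells lacked labelled fibronectin entirely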
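test system = AH1F fibroblasts assembling fluorescent fibronectin matrix | quantity = 10000 AH1F cells per well | buffer or medium = DMEM plus 2% serum, read in PBS | doses = single dose, pinned | incubation = 1 h cell attachment, overnight exposure to compound and label | detection = fluorescence at 485 nm excitation, 525 nm emission | read-out basis = inhibition from reduced deposited-fibronectin fluorescence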
UUG fidelity – modulators of start codon recognition fidelity in yeast; S. cerevisiae UUG-firefly luciferase reporter, luminescence/redox ratio; activity score, % at 18.7 µM; hit rate 0.13% among 350,000; AID 602363;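 active = replicate mean at a twofold rise or more, about +100% in these data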;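 note: firefly luciferase made from a UUG start codon reports start codon fidelity; reporter light over untreated wells divided by growth signal over untreated wells; some hits fall short of that in this replicate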
hiPSC survival – enhancers of human iPSC single-cell survival; hiPSC single-cell survival, ATPlite luminescence; 100% = ROCK inhibitor wells, 0% = DMSO; survival enhancement, % at 20 µM; 360,000 compounds, 0.044% hits; AID 602274; in the data active = survival enhancement above about 18%;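 also: cells exposed to compounds for 16 hours before the ATP read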
PGC1a acetyl inh – lowers PGC1a acetylation signal in U2OS cells; inhibition, % at 15.6 µM; 350,000 compounds, 0.17% hits; AlphaScreen anti-acetyl-lysine; with virally co-expressed GCN5 acetyltransferase;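 active = every replicate shows inhibition of at least 40%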;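 also: 0% = neutral control wells and 100% = positive control wells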
C2C12 statin – protects C2C12 myotubes from simvastatin toxicity. ATP luminescence, 48 h; scaled: DMSO 0, geranylgeraniol control 100. rescue of ATP level, % at 7.49 µM. 330,000 compounds, 0.78% hits. AID 602340;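 active = mean ATP rescue above about 67%, or every replicate alone reaching that limit, limit read from the data, passing the limit was not always enough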;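 also: myotubes were challenged with 10 µM simvastatin during compound exposure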
* = called active by the depositor; . = no result.

Results follow in this order: UUG fidelity	hiPSC survival	FN deposition inh	PGC1a acetyl inh	C2C12 statin
#1 CC1(C)CC[C@]2(C(=O)O)CC[C@]3(C)C(=CC[C@@H]4[C@@]5(C)CC[C@H](O[C@@H]6O[C@H](C(=O)O)[C@@H](O)[C@H](O[C@@H]7OC[C@H](O)[C@H](O)[C@H]7O)[C@H]6O)C(C)(C)[C@@H]5CC[C@]43C)[C@@H]2C1
 : 6	2	51*	25	-40
#2 O=C1CCC[C@@H]2Cc3nc4cc5c(cc4cc3[C@@H]3CCN1[C@H]23)OCO5
 : -15	-3	6	2	80*
#3 O=C1CCC[C@@H]2Cc3nc4ccc(O)cc4cc3[C@@H]3CCN1[C@H]23
 : -5	-2	-9	2	7
#4 O=C1NC(=O)/C(=C/c2cccc3ccccc23)S1
 : -21	1	-2	-6	-10
#5 CCCOc1ccc2ccccc2c1/C=C1\SC(=O)NC1=O
 : -9	1	-4	76*	-19
#6 Cc1noc(C)c1NC(=O)Nc1ccc2c(c1)CC(=O)N([C@H](C)CO)C[C@H](C)[C@H](CN(C)Cc1ccc(Cl)c(Cl)c1)O2
 : 7	.	.	4	-14
#7 Nc1nc(C2CC2)c(Sc2sc(N)nc2C2CC2)s1
 : -25	-2	.	-9	69*
#8 C[C@H](CO)N1C[C@H](C)[C@H](CN(C)Cc2ccc(Cl)c(Cl)c2)Oc2ccc(NS(=O)(=O)c3cn(C)cn3)cc2CC1=O
 : 4	.	.	-8	61
#9 CCOC(=O)C(C)n1nc(/C=C/c2ccc(OC)cc2)ccc1=O (stereo unspecified)
 : .	0	13	-19	.
#10 CCOC(=O)C(C)n1nc(/C=C/c2ccccc2)ccc1=O (stereo unspecified)
 : -4	3	.	-1	118*

3 structures already listed, arranged by molecular weight, smallest number first.
Results follow in this order: UUG fidelity	hiPSC survival	FN deposition inh	PGC1a acetyl inh	C2C12 statin
#3 O=C1CCC[C@@H]2Cc3nc4ccc(O)cc4cc3[C@@H]3CCN1[C@H]23
 : -5	-2	-9	2	7
#5 CCCOc1ccc2ccccc2c1/C=C1\SC(=O)NC1=O
 : -9	1	-4	76*	-19
#8 C[C@H](CO)N1C[C@H](C)[C@H](CN(C)Cc2ccc(Cl)c(Cl)c2)Oc2ccc(NS(=O)(=O)c3cn(C)cn3)cc2CC1=O
 : 4	.	.	-8	61

Two compounds picked at random from the list so far, as already listed:
Results follow in this order: UUG fidelity	hiPSC survival	FN deposition inh	PGC1a acetyl inh	C2C12 statin
#5 CCCOc1ccc2ccccc2c1/C=C1\SC(=O)NC1=O
 : -9	1	-4	76*	-19
#8 C[C@H](CO)N1C[C@H](C)[C@H](CN(C)Cc2ccc(Cl)c(Cl)c2)Oc2ccc(NS(=O)(=O)c3cn(C)cn3)cc2CC1=O
 : 4	.	.	-8	61

Remaining list, next part:
Results follow in this order: UUG fidelity	hiPSC survival	FN deposition inh	PGC1a acetyl inh	C2C12 statin
#11 O=C(O)c1ccc(-c2nc(-c3ccc(Cl)cc3Cl)cs2)cc1
 : 555*	1	1	11	-55
#12 O=C(N[C@H]1CC[C@H](CCn2cc(-c3cccnc3)nn2)O[C@@H]1CO)c1ccccc1F
 : -3	.	.	-7	-9
#13 CC(=O)N(C)c1ccc(NC(=O)Cc2cccc3ccccc23)cc1
 : 4	0	5	2	123*
#14 O=C(Cc1cccc2ccccc12)Nc1cc(C(=O)O)cc(C(=O)O)c1
 : -7	0	8	-11	9
#15 CNC(=O)Cn1nc(C)c2ccccc2c1=O
 : -5	2	13	.	.
#16 Cc1nn(CC(=O)NCc2ccccc2)c(C)c1[N+](=O)[O-]
 : -5	0	.	6	84*
#17 Cc1nn(CC(=O)NCCc2ccccc2)c(=O)c2ccccc12
 : -9	0	.	-2	137*
#18 Cc1ccc(S(=O)(=O)N[C@@H]2C=C[C@@H](CC(=O)NCCCN(C)C)O[C@@H]2CO)cc1
 : 2	.	-2	-2	-1
#19 Cc1noc(C)c1NC(=O)N1C[C@@H](O)COC[C@@H]2O[C@H](CC(=O)NCC3CC3)CC[C@H]21
 : -7	.	6	11	4
#20 COCCn1nnnc1C(c1ccc(C)cc1)N1CCN(Cc2ccc3c(c2)OCO3)CC1 (stereo unspecified)
 : -12	-1	.	-9	93*
#21 C=CCN1CCN(C(c2ccccc2)c2nnnn2CCC(C)C)CC1 (stereo unspecified)
 : -16	-1	-4	-2	71*
#22 COCCn1nnnc1C(c1ccccc1)N1CCN(Cc2ccc3c(c2)OCO3)CC1 (stereo unspecified)
 : 7	-2	.	-7	108*
#23 O=C(N[C@@H]1CC[C@H](CCn2cc(-c3ccccc3)nn2)O[C@@H]1CO)c1cnccn1
 : -8	.	-7	6	0
#24 C=C(C)Cn1c(=S)[nH]c2ccccc2c1=O
 : -14	1	4	10	144*
#25 Cc1cc(N)c2cc(NC(=O)/C=C/c3ccccc3Cl)ccc2n1
 : -20	-1	.	80*	-97
#26 O=C(O)COc1c(-c2ccccc2)oc2ccccc2c1=O
 : -19	0	-2	1	75*
#27 C[C@@H]1CN([C@H](C)CO)C(=O)c2cc(NS(=O)(=O)c3cn(C)cn3)ccc2O[C@@H](C)CCCCO[C@H]1CN(C)S(=O)(=O)c1ccc(Cl)cc1
 : -5	.	.	-4	.
#28 CCN1C/C(=C\c2cccc([N+](=O)[O-])c2)C(=O)/C(=C/c2cccc([N+](=O)[O-])c2)C1
 : -1	56*	9	13	.
#29 CCSc1nnc(NC(=O)CSC2=NCCS2)s1
 : .	0	-1	94*	.
#30 O=[N+]([O-])/C=C/c1c(OCc2ccccc2)ccc2ccccc12
 : 286*	-6	.	.	-4
#31 CCc1nnc(NS(=O)(=O)c2ccc(N/C=C(\C=O)c3nc4cc(Cl)ccc4o3)cc2)s1
 : -16	2	2	7	93*
#32 CO[C@@H]1CN(C)C(=O)c2ccc(NC(C)=O)cc2OC[C@@H](C)N(C(=O)C2CCOCC2)C[C@H]1C
 : 1	.	0	-3	-9
#33 O=C(c1ccc2c(c1)OCO2)N1CC(=O)N2[C@@H](CO)[C@@H](c3ccc(C#Cc4ccccc4)cc3)[C@@H]2C1
 : .	.	.	14	.
#34 CC[C@H](C)[C@@H]1OC(=O)[C@@H](C)[C@@H](CC)NC(=O)[C@H](C)N(C)C(=O)C(C)(C)C(=O)C(C)NC(=O)[C@H](Cc2ccccc2)N(C)C(=O)[C@H](C(C)C)N(C)C(=O)CNC(=O)[C@H](CC(C)C)N(C)C(=O)CNC1=O (stereo partly specified)
 : 59	-5	.	76*	-54
#35 COc1ccc(C(=O)c2cn[nH]c2-c2cc(Cl)ccc2O)cc1
 : -5	0	-9	3	144*
#36 Cc1ccc(NC(=O)c2cnn(C)c2)cc1[N+](=O)[O-]
 : .	5	9	.	.
#37 Cn1cc(C(=O)Nc2ccc(F)c(F)c2)cn1
 : 9	0	.	44	90*
#38 CCC(C)N(C)Cc1cccc(C2(O)CCN(S(=O)(=O)c3ccc(F)cc3)CC2)c1 (stereo unspecified)
 : 9	0	-8	6	123*
#39 CCS(=O)(=O)N1CCN(S(=O)(=O)c2ccc(F)cc2)CC1
 : .	0	1	.	.
#40 Cc1ccc(S(=O)(=O)N(CC(=O)NCc2ccco2)Cc2ccccc2F)cc1
 : 4	-4	.	-1	67*
#41 C[C@@H]1CN([C@@H](C)CO)C(=O)Cc2cc(NS(=O)(=O)c3cccs3)ccc2O[C@H]1CN(C)Cc1ccc(-c2ccccc2)cc1
 : -7	.	3	-3	0
#42 CC(=O)N(C)C[C@H]1Oc2ncc(C#C[C@@H](C)O)cc2C(=O)N([C@H](C)CO)C[C@@H]1C
 : -16	.	-31	-5	4
#43 Cc1cccc(-n2ncc3c(NCCc4ccc(S(N)(=O)=O)cc4)ncnc32)c1
 : -22	5	-6	-11	105*
#44 CCOC(=O)c1ccc(NS(=O)(=O)c2ccc(-c3coc(C)n3)cc2)cc1
 : -13	1	4	-7	93*
#45 CCOc1ccc(NS(=O)(=O)c2ccc(-c3coc(C)n3)cc2)cc1
 : -5	-1	6	8	2
#46 COc1ccccc1N1CCN(C(=O)c2ccc(S(=O)(=O)N3CCCCCC3)cc2)CC1
 : 11	-1	.	-18	127*
